Source: patent publication US20080182822A1, “Liquid Pharmaceutical Compositions Comprising a Bisphosphonate Compound” (Besins Healthcare SA, priority 2006, published 2008)

Conditions: rat, dermal (Group 2), necropsy Day 8, Mean

## NCCCC(O)(P(=O)(O)O)P(=O)(O)O [14C-alendronate]
  Recovery from Treated Skin, Amount in Skin Sample: 5.26 µg
